Sequences of proteins named here, by UniProt entry; tags and fusion partners are left off. A change or cut given only in a name is not applied to a line headed by its entry.
UniProt P41595, whole entry: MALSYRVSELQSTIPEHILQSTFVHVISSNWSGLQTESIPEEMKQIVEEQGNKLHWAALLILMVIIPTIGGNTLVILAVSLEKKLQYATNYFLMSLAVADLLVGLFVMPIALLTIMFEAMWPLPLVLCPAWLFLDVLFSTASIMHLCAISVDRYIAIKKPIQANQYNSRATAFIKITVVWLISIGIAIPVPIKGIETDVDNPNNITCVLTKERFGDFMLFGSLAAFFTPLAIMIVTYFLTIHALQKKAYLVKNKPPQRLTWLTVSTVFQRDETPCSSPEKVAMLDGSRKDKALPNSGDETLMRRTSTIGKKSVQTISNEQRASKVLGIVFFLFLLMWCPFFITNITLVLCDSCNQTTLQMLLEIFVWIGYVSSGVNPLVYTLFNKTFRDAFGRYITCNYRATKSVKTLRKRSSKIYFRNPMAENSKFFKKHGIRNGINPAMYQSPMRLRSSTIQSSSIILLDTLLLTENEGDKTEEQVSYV
UniProt P28335: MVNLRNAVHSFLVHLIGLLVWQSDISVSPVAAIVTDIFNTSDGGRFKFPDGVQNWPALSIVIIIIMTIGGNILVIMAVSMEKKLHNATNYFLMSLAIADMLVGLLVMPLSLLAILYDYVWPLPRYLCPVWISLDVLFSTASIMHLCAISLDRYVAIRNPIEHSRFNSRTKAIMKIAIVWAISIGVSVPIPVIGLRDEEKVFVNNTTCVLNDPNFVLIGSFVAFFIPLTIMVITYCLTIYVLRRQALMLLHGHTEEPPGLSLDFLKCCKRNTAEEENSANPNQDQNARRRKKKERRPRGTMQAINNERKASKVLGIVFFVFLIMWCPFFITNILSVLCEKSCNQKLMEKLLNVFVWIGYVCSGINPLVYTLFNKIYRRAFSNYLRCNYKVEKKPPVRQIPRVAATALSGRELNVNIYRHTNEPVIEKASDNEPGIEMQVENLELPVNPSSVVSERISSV

In BindingDB's records for PubMed 10617681 (Dupont Pharmaceuticals, 2000):

Tests used:
[1] = target: 5-hydroxytryptamine receptor 2B (Homo sapiens, UniProt P41595)
[2] = target: 5-hydroxytryptamine receptor 2C (Homo sapiens, UniProt P28335)

SMILES	Ki [1]	Ki [2]
CCN[C@@H](C)Cc1cccc(C(F)(F)F)c1 [NSC_65801]	3.92 µM	2.08 µM
CCN[C@H](C)Cc1cccc(C(F)(F)F)c1 [NSC_65801]	0.68 µM	
